Amino acid sequences for entries named in this document (tags omitted). A change or cut given only in a name is not applied to a line headed by its entry.
UniProt P11716: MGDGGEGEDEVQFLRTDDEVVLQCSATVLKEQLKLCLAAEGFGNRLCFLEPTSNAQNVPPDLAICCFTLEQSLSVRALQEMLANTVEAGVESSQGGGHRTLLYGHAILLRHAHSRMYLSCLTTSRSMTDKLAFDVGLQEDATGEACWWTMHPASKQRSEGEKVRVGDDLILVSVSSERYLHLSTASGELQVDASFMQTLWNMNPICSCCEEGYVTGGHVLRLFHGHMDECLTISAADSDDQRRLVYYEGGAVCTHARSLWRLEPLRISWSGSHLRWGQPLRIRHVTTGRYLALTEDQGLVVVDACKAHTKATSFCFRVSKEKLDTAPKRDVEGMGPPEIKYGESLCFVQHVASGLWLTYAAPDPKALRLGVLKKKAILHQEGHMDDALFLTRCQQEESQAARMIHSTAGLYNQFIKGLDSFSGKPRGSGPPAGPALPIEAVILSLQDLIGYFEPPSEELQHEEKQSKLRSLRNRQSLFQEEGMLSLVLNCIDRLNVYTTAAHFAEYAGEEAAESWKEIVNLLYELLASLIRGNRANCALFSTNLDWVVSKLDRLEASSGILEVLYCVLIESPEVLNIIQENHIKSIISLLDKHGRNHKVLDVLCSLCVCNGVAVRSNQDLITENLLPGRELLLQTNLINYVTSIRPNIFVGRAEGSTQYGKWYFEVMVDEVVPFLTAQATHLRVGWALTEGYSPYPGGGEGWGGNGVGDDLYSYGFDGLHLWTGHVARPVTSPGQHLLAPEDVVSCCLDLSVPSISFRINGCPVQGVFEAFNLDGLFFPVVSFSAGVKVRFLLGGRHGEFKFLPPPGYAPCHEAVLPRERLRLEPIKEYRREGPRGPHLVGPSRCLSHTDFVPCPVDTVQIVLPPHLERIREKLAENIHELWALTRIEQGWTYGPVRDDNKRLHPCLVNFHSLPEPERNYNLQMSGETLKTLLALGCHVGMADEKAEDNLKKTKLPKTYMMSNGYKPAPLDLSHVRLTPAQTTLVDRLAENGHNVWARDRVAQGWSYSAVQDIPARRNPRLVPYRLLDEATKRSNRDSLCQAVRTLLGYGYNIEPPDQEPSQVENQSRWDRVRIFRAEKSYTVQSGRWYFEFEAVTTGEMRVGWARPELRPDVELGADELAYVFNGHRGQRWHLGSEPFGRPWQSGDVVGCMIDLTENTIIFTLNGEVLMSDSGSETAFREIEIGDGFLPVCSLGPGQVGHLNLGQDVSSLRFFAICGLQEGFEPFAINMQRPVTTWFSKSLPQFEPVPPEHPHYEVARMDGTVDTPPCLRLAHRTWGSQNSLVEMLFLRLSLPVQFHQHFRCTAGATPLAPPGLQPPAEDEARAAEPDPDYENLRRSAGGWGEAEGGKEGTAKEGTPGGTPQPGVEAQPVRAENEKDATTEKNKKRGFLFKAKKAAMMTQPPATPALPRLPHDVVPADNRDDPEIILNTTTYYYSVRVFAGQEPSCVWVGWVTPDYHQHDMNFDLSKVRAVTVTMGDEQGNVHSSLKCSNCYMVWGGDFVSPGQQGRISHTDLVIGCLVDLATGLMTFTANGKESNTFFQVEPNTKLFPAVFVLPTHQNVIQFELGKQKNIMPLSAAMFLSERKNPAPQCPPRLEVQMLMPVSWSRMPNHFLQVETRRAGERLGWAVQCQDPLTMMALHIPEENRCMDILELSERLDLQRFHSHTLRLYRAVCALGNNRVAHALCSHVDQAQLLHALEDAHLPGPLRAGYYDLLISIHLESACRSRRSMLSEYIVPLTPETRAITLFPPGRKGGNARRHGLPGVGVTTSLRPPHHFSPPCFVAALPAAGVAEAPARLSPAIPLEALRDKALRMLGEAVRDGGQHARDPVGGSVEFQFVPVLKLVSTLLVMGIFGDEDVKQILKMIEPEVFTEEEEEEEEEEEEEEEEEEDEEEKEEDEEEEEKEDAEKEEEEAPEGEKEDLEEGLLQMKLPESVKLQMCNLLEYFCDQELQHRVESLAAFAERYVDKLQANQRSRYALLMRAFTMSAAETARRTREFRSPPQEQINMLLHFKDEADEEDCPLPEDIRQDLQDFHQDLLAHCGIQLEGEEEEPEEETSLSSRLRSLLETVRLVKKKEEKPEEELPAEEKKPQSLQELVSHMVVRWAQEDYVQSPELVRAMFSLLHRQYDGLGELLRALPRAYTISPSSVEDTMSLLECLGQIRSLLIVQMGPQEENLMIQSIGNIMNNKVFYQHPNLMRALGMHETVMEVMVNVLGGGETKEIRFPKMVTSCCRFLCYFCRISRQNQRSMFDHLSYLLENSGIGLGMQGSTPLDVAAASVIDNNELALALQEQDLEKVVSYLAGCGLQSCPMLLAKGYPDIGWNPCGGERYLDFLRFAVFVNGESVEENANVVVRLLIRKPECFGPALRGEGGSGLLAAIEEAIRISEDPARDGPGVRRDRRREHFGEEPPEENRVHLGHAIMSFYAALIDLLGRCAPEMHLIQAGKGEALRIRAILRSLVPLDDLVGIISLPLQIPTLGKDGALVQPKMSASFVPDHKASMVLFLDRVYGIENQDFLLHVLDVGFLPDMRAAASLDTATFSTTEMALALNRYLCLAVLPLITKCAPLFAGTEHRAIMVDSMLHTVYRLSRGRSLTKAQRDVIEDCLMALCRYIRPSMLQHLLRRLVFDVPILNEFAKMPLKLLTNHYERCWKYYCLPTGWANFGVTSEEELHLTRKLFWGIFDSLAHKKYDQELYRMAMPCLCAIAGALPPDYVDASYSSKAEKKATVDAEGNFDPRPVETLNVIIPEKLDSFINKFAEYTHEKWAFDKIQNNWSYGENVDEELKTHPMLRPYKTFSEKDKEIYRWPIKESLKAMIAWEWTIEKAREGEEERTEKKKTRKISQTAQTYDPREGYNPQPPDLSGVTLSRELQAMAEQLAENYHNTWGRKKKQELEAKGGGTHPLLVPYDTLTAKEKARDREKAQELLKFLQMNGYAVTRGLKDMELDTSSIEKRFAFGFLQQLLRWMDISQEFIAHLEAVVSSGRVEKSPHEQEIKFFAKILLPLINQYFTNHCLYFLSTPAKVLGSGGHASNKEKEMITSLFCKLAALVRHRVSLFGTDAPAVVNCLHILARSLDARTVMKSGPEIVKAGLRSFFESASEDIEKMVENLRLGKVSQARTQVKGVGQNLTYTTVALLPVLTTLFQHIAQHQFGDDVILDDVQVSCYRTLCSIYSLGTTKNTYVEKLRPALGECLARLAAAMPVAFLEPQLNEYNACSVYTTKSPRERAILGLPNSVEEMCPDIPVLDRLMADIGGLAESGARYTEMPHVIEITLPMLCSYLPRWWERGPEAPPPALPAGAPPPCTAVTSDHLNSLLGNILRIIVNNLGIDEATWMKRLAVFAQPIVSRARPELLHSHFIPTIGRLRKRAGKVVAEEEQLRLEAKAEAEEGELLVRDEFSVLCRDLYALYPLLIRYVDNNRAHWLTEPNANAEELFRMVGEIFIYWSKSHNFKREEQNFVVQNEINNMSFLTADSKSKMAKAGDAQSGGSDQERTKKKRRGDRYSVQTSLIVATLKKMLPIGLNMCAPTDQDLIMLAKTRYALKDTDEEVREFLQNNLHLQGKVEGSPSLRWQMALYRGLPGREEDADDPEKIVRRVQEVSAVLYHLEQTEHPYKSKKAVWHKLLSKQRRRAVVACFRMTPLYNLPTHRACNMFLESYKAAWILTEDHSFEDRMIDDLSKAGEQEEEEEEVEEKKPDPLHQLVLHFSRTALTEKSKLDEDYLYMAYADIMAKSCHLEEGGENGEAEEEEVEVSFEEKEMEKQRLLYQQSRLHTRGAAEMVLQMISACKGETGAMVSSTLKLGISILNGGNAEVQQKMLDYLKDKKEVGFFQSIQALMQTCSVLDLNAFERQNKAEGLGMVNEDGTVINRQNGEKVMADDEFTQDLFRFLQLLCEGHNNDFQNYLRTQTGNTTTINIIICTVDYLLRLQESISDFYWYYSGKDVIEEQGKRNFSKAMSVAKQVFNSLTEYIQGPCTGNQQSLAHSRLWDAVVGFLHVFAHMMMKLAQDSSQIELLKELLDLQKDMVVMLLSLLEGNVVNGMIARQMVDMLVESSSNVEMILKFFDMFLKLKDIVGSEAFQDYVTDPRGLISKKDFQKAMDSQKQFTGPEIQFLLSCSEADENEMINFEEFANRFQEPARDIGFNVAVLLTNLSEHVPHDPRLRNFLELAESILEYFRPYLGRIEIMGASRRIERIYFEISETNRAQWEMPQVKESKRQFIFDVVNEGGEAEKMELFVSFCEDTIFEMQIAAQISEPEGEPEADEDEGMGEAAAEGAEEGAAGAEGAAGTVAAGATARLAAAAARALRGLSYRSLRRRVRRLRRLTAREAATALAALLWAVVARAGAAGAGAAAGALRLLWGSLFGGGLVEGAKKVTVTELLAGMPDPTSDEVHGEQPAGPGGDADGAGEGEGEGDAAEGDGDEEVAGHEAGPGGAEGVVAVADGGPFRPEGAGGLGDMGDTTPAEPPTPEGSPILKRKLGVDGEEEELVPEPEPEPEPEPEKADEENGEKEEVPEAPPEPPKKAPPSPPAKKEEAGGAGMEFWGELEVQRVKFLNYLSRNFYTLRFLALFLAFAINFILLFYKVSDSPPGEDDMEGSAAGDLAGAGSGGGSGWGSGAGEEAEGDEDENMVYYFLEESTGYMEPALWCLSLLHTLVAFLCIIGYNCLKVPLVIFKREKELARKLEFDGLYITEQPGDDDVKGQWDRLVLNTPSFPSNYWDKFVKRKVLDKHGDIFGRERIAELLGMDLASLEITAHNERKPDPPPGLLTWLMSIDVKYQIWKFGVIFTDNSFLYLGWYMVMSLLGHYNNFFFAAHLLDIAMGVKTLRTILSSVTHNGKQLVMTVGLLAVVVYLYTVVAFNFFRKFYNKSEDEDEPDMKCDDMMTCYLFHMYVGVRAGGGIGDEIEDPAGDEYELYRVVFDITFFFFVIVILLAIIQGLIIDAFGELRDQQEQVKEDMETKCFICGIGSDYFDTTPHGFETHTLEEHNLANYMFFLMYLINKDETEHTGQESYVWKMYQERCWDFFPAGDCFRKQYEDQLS

In ChEMBL document CHEMBL3045240, “Structural aspects of ryanodine action and selectivity” (J Med Chem, 1987):

Target: Ryanodine receptor 1 (Oryctolagus cuniculus, UniProt P11716)

## CC(C)[C@@]1(O)[C@@H](OC(=O)c2ccc[nH]2)[C@@]2(O)[C@@]3(C)C[C@]4(O)O[C@@]5([C@H](O)[C@H](C)CC[C@]35O)[C@@]2(O)[C@]14C [EPIRYANODINE]
  IC50: 41 nM
